Laboratory results: patent US20250051471A1, “Anti-Abcb1 Antibodies” (WILLIAM ROBERT ARATHOON LIVING TRUST DATED AUGUST 29, 2016, priority 2021, published 2025)

Tests used:
human Red Blood Cells = assay: Antibody binding to human red blood cells by flow cytometry; type: cell-based; details: species not given
Procedure: Antibody binding to human and cynomolgus RBC was assessed by flow cytometry. Normal human and cynomolgus whole blood was obtained from BiolVT. RBC were prepared by centrifugation of whole blood aliquots (0.5 mL) for 5 min at 500xg. Supernatant (plasma) was removed, and RBC washed 3 times in D-PBS+1 mM EDTA. After the final wash, the RBC were resuspended in D-PBS+1 mM EDTA to a final volume of 0.5 mL. Washed RBC were then diluted in flow cytometry buffer (D-PBS+2% FBS+0.05% sodium azide) to 2% and dispensed at […] into 96-well plates. An equivalent volume ([…]) of antibody serially diluted in flow cytometry buffer to 2× final was added to the RBC, and the mixture incubated for 1 hour at room temperature. Next, RBC were washed 3 times with flow cytometry buffer and resuspended in 50 μL of Alexa Fluor®647 conjugated Fab fragment goat anti-human IgG diluted 1:200 in flow cytometry buffer. After 20 minutes at room temperature RBC were washed twice, resuspended in flow cytometry buffer and analyzed using an Invitrogen™ Attune™ NXT flow cytometer. […] Left panel, RBC are gated (R1) based on forward and side scatter. Middle panel, a second gate (R2) is applied to eliminate any remaining doublets or aggregates. Right panel, fluorescence of the R2 gated cells is assessed and a final gate (R3) is set using unstained RBC. […]

MES-SA/Dx5 cells = assay: In vivo anti-tumor effects on MES-SA/Dx5 multidrug resistance xenograft model; parameters: species or system athymic nude mice
Procedure: MES-SA/Dx5 cells were grown in RPMI-1640 supplemented with 10% FBS and 100 nM doxorubicin. Prior to implant cells were washed three times with D-PBS and resuspended in the same. Resuspended cells were mixed with an equal volume of Matrigel and xenografts were established by sub-cutaneous injection of 0.5×10^6 tumor cells into 5-8-week-old female athymic nude mice. Tumors were measured three times a week using a calibrated digital caliper, and tumor volumes (TV) were calculated as per the formula: TV=/*L*S*S, where L is the long axis and s is the short axis of the tumor. Once tumors reached 100-150 mm^3, mice were randomized into twelve groups of five mice each-(i) Control isotype IgG1 3 mg/kg, (ii) Control isotype IgG1 3 mg/kg and 20 mg/kg of paclitaxel, (iii) KNJYBisP1.1 3 mg/kg, (iv) KNJYBisP1.1 3 mg/kg and 20 mg/kg of paclitaxel, (v and vi) 15D3 HIR2/KT14 KbR1/B1.89v1.huL1(KV2) Bispecific 3 mg/kg, (vii and viii) 15D3 HIR2/KT14 KbR1/B1.89v1.huL1(KV2) Bispecific 3 mg/kg and 20 mg/kg of paclitaxel, (ix) 15D3hmz16-1 KK/KT14 DD/MRK16v4a1 Bispecific 3 mg/kg, (x) 15D3hmz16-1 KK/KT14 DD/MRK16v4a1 Bispecific 3 mg/kg and 20 mg/kg of paclitaxel, (xi) 15D3 HIR2/KT14 KbR1/B1VL6/CDR3v2a Bispecific 3 mg/kg, (xii) 15D3 HIR2/KT14 KbR1/B1VL6/CDR3v2a Bispecific 3 mg/kg and 20 mg/kg of paclitaxel.
Antibody and paclitaxel were dosed intraperitoneally twice a week for two consecutive weeks. […]

B1: KBisP1.1: ABCB1XCD47 bispecific antibody 15D3 HC KK/KT14 HC DD/MRK16 LC (antibody)
heavy 1: EVKVVESGGVLVRPGGSLKLSCAASGFTFSRYTMSWVRQTPEKRLEWVATISSGGGNTYYPDSVKGRFTVSRDNAMSSLYLQMSSLRSEDTALYYCARYGAGDAWFAYWGQGTLVTVSSASTKGPSVFPLAPSSKSTSGGTAALGCLVKDYFPEPVTVSWNSGALTSGVHTFPAVLQSSGLYSLSSVVTVPSSSLGTQTYICNVNHKPSNTKVDKKV[human IgG1 Fc with changes omitted]
heavy 2: QVQLVQSGAEVKKPGASVKVSCKASGYTFTNYNMHWVRQAPGQRLEWMGTIYPGNDDTSYNQKFKDRVTITADTSASTAYMELSSLRSEDTAVYYCARGGYRAMDYWGQGTLVTVSSASTKGPSVFPLAPSSKSTSGGTAALGCLVKDYFPEPVTVSWNSGALTSGVHTFPAVLQSSGLYSLSSVVTVPSSSLGTQTYICNVNHKPSNTKVDKKV[human IgG1 Fc with changes omitted]
light: DVLMTQTPVSLSVSLGDQASISCRSSQSIVHSTGNTYLEWYLQKPGQSPKLLIYKISNRFSGVPDRFSGSGSGTDFTLKISRVEAEDLGVYYCFQASHFPRTFGGGTKLEIKRTVAAPSVFIFPPSDEQLKSGTASVVCLLNNFYPREAKVQWKVDNALQSGNSQESVTEQDSKDSTYSLSSTLTLSKADYEKHKVYACEVTHQGLSSPVTKSFNRGEC
binding to red blood cells (in words) (human Red Blood Cells): No binding | tumor growth inhibition / activity as a single agent (MES-SA/Dx5 cells; 3 mg/kg i.p.): significantly inhibited tumor growth | tumor growth inhibition in combination with paclitaxel (MES-SA/Dx5 cells; 3 mg/kg plus paclitaxel 20 mg/kg): significantly inhibited tumor growth
